Four molecules from ChEMBL document CHEMBL1129385, “Aspartic acid conjugates of 2-(3,4-dichlorophenyl)-N-methyl-N-[(1S)-1(3-aminophenyl)-2-(1-pyrrolidi nyl) ethyl]acetamide: kappa opioid receptor agonists with limited access to the central nervous system” (J Med Chem, 1996) can be followed below.

Assay [1] concerns Mus musculus. Nature of the assay: Compound was evaluated for Antinociceptive potencies in mice for in vivo activity Mouse abdominal stretch assay by iv administration. Conditions: Abdomen.
Assay [2] deals with Mus musculus. Nature of the assay: Compound was evaluated for Antinociceptive potencies in mice for in vivo activity in Mouse abdominal stretch assay by icv administration. As to conditions: Abdomen.
The species named for assay [3] is Mus musculus. The assay is described as follows: Compound was tested for its agoinst potencies on the electrically stimulated mouse vas deferens.
For assay [4], the system named is Mus musculus. The assay is described as follows: Compound was evaluated for Antinociceptive potencies in mice for in vivo activity in mouse tail-flick by iv administration.

For orientation: ED50 means the dose that gives a 50% effect, or the effect in half of the subjects. A lower ED50 goes with an effect at a small dose. What is called IC50 is the concentration at which inhibition is half-maximal. Read a high IC50 as a need for much substance.

In the case of `CN(C(=O)Cc1ccc(Cl)c(Cl)c1)[C@H](CN1CCCC1)c1cccc(NC(=O)[C@@H](N)CC(=O)O)c1`, in the assay with Mus musculus [1], the 50% effect level (ED50) was put at a dose of 0.105 µmol/kg.

Regarding `CN(C(=O)Cc1ccc(Cl)c(Cl)c1)[C@H](CN1CCCC1)c1cccc(NC(=O)C[C@H](N)C(=O)O)c1`, the ED50 in the assay on Mus musculus [1] was determined as 0.628 µmol/kg.

On to `CN(C(=O)Cc1ccc(Cl)c(Cl)c1)[C@H](CN1CCCC1)c1ccccc1`, for which the values for the ED50 in the assay with Mus musculus [2] and with Mus musculus [1] were 0.0118 µmol/kg and 0.0165 µmol/kg, respectively. In the assay listed under Mus musculus [3], the IC50 turned out to be 2.5 nM.

In the case of `CN(C(=O)Cc1ccc(Cl)c(Cl)c1)[C@H](CN1CCCC1)c1cccc(NC(=O)[C@H](N)CC(=O)O)c1`, the ED50 in the assay with Mus musculus [1] and with Mus musculus [4] was 2.02 µmol/kg in each case.
